Reference: paper PMC2668526 (Bioorganic & medicinal chemistry, 2008)

Molecular target: T1, rat PAM (Rattus norvegicus, UniProt P14925)
T1 sequence (P14925 36-715 isoform P14925-2 limits assumed): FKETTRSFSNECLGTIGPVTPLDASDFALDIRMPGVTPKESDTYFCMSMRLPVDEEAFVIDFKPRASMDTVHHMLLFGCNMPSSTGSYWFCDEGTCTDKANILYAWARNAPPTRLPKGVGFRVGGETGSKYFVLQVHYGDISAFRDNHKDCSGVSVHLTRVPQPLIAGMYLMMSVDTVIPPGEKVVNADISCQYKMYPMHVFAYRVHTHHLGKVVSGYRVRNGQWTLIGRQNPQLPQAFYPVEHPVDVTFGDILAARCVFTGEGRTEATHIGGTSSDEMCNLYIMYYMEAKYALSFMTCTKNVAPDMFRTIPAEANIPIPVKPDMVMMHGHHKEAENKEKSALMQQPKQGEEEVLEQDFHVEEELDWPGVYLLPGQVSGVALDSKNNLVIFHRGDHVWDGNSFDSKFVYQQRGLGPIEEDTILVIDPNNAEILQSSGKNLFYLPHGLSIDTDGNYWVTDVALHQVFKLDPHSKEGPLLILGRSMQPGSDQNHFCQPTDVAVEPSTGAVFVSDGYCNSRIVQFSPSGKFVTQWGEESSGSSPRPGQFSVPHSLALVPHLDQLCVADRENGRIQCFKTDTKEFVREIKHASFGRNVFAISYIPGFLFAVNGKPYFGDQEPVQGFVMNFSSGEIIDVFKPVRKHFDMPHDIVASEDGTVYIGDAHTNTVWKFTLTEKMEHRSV
Assay: Bifunctional rat PAM inhibition
Type: biochemical
Details: Ki,s, absence of DMSO, competitive inhibition assumed

Ki	Structure (SMILES)
66 ± 8 µM	CCOC(=O)CNC(=O)[C@H](CS)NC(=O)CC[C@H](N)C(=O)O [compound 67, Glutathione Ethyl Ester]
2900 µM	O=C(O)CCC(=O)c1ccccc1 [compound 77, 3-Benzoylpropionic acid]
